Measured values reported in ChEMBL document CHEMBL4480374, “Methoxy substituted 2-benzylidene-1-indanone derivatives as A1 and/or A2A AR antagonists for the potential treatment of neurological conditions” (Medchemcomm, 2019).

Target: Adenosine receptor A2a (Homo sapiens, UniProt P29274)
Experiment: Antagonist activity at human adenosine A2A receptor

CC(C)n1cc(-c2ncc(N)nc2-c2ccc(F)cc2)ccc1=O
Ki: 1760 nM
